Results on 1 molecule are retold here after publication PMC3484126 (PLoS ONE, 2012).

In this assay the target is coumarin-labelled p53 (1–57) (UniProt P04637 1-57, coumarin label (position not given)).

B1: KLF4 (271–479) (domain or fragment)
chain: PRTCPKIKQEAVSSCTHLGAGPPLSNGHRPAAHDFPLGRQLPSRTTPTLGLEEVLSSRDCHPALPLPPGFHPHPGPNYPSFLPDQMQPQVPPLHYQELMPPGSCMPEEPKPKRGRRSWPRKRTATHTCDYAGCGKTYTKSSHLKAHLRTHTGEKPYHCDWDGCGWKFARSDELTRHYRKHTGHRPFQCQKCDRAFSRSDHLALHMKRHF
Molecule B1 showed a dissociation constant Kd of 30 µM.

A word on the Kd: it is the constant that tells how readily two partners part at equilibrium. The low end stands for a tighter complex, the high end for a looser complex.
